The values that follow come from patent US20260382749A1, “BENZAZEPINE DERIVATIVE, CONJUGATE CONTAINING SAME, AND USE THEREOF” (published 2026).

Protein sequences, listed by entry. Tags and fused reporters are not part of them. Residues count along the entry.
UniProt Q9NR97, 27-1041 limits assumed: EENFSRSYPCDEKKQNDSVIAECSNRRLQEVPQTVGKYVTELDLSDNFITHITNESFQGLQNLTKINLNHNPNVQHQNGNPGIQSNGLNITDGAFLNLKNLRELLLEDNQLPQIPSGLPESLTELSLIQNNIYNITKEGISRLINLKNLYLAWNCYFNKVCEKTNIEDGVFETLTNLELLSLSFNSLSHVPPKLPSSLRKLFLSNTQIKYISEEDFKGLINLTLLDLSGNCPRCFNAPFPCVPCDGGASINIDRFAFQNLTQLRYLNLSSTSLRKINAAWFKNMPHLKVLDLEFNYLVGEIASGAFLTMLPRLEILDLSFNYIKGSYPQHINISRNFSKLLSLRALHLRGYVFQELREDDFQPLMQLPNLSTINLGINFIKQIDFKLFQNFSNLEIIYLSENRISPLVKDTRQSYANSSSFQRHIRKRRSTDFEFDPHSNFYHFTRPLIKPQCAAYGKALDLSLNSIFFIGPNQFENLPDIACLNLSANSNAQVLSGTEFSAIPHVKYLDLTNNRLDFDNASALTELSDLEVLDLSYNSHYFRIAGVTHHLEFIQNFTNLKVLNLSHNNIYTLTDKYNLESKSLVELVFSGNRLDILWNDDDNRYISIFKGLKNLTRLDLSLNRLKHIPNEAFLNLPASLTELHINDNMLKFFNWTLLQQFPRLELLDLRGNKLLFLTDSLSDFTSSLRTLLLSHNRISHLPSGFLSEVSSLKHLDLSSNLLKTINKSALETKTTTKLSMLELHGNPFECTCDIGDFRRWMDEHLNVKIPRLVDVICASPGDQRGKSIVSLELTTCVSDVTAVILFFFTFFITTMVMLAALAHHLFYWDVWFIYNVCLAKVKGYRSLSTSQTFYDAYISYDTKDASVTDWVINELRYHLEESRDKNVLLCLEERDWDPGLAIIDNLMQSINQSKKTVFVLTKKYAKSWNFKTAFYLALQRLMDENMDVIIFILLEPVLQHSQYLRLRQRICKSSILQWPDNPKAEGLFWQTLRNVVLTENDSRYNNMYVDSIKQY
UniProt Q9NYK1, 27-1049 limits assumed: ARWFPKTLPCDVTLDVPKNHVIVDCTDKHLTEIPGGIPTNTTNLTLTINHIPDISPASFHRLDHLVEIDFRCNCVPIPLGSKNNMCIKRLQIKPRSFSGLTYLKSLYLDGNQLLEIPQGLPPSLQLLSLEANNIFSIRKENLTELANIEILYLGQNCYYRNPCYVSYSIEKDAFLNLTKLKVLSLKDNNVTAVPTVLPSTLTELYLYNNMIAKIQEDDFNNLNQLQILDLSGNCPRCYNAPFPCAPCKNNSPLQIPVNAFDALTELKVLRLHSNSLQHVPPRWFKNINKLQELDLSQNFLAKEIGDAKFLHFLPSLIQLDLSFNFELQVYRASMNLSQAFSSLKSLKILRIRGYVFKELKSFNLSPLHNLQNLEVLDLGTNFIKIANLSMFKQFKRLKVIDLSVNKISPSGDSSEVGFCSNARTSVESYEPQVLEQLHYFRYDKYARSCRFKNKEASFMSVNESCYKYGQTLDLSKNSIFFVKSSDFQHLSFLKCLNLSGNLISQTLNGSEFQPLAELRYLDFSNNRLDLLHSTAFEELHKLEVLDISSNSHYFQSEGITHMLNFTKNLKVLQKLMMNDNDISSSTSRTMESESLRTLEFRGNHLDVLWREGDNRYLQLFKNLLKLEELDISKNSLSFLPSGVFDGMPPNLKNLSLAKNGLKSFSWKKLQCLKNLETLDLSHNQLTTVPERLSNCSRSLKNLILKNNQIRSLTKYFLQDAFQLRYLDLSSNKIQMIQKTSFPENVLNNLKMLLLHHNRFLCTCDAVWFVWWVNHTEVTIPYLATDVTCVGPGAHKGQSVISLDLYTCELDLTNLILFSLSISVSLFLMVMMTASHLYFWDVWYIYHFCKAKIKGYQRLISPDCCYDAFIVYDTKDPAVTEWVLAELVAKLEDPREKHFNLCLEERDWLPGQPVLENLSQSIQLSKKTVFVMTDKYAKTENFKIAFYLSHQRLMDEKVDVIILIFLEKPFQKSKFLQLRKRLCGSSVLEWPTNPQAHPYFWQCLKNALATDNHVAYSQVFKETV

One assay has as its target TLR8 (Homo sapiens, UniProt Q9NR97). In words: HEK-BLUE-hTLR8 cell SEAP reporter agonist assay (Quanti-Blue). The conditions noted are these: read-out: TLR8 EC50; HEK-BLUE-hTLR8 cells, 24 hours.
The next assay concerns the target TLR7 (Homo sapiens, UniProt Q9NYK1). In words: HEK-BLUE-hTLR7 cell SEAP reporter agonist assay (Quanti-Blue). The conditions noted are these: read-out: TLR7 EC50; HEK-BLUE-hTLR7 cells, 24 hours.
Another assay deals with MDA-MB-468/hPBMC. Nature of the assay: System 2: TNFα secretion, MDA-MB-468/hPBMC co-culture. Conditions: system 2, MDA-MB-468/hPBMC, 20 hours.
A further assay deals with MDAMB175VII/hPBMC. Nature of the assay: System 2: TNFα secretion, MDA-MB-175VII/hPBMC co-culture. Conditions: read-out: TNFα (MDAMB175VII/hPBMC) EC50; system 2, MDAMB175VII/hPBMC, 20 hours.
Assay [1] has as its system MC38-HER2 mouse colon cancer cells. In words: In vivo efficacy in the mouse subcutaneous xenograft model of MC38-HER2 mouse colon cancer cells (tumor volume). The conditions noted are these: day 20, B6-hTLR8-HO mice.
A further assay has as its system NUGC-4/hPBMC. Nature of the assay: System 2: TNFα secretion, NUGC-4/hPBMC co-culture. Conditions: system 2, NUGC-4/hPBMC, 20 hours.

Turning to “2-amino-6-fluoro-N-(2-hydroxyethyl)-N-propyl-8-(1-((5,6,7,8-tetrahydro-1,6-naphthyridin-3-yl)carbamoyl)cyclopropyl)-3H-benzo[b]azepine-4-formamide”, the EC50 was 250 to 1000 nM on TLR8 and more than 2000 nM at TLR7.

For “2-amino-8-(1-((6-(1-(2,5-dioxo-2,5-dihydro-1H-pyrrol-1-yl)-2,12-dioxo-6,9-dioxa-3,13-diazapentadecan-15-acyl)-5,6,7,8-tetrahydro-1,6-naphthyridin-3-yl)carbamoyl)cyclopropyl)-N-(2-hydroxyethyl)-N-propyl-3H-benzo[b]azepine-4-formamide”, the EC50 at TLR8 is less than 250 nM.

Take “2-amino-8-(1-((6-(1-(2,5-dioxo-2,5-dihydro-1H-pyrrol-1-yl)-3-oxo-7,10,13,16,19,22-hexaoxa-4-azapentacosan-25-acyl)-5,6,7,8-tetrahydro-1,6-naphthyridin-3-yl)carbamoyl)cyclopropyl)-N-(2-hydroxyethyl)-N-propyl-3H-benzo[b]azepine-4-formamide”: the EC50 at TLR8 was 250 to 1000 nM.

Take “2-amino-8-(1-((6-(2-((2,5-dioxo-2,5-dihydro-1H-pyrrol-1-yl)methyl)-1,3-dioxan-5-carbonyl)-5,6,7,8-tetrahydro-1,6-naphthyridin-3-yl)carbamoyl)cyclopropyl)-N-(2-hydroxyethyl)-N-propyl-3H-benzo[b]azepine-4-formamide, isomer 2”: at TLR8, the EC50 was 250 to 1000 nM.

In the case of “2-amino-N^4-(2-hydroxyethyl)-N^4-propyl-N^8-(5,6,7,8-tetrahydro-1,6-naphthyridin-3-yl)-3H-benzo[b]azepine-4 8-diacetamide”, the EC50 at TLR8 was 250 to 1000 nM; at TLR7, more than 2000 nM.

Turning to “(2S,3S,4S,5R,6S)-6-(4-(((3-(1-(2-amino-4-((2-hydroxyethyl)(propyl)carbamoyl)-3H-benzo[b]azepin-8-yl)cyclopropyl-1-formylamino)-5,6,7,8-tetrahydro-1,6-naphthyridine-6-carbonyl)oxy)methyl)-2-(2-(6-(2,5-dioxo-2,5-dihydro-1H-pyrrol-1-yl)hexanoylamino)acetylamino)phenoxy)-3,45-trihydroxytetrahydro-2H-pyran-2-carboxylic acid”, at TLR8, the EC50 was less than 250 nM.

As to “(S)-2-amino-8-(1-((6-(5-benzyl-18-(2,5-dioxo-2,5-dihydro-1H-pyrrol-1-yl)-4,7,10,13-tetraoxo-3,6,9,12-tetraoxaoctadecan-1-yl)-5,6,7,8-tetrahydro-1,6-naphthyridin-3-yl)carbamoyl)cyclopropyl)-N-(2-hydroxyethyl)-N-propyl-3H-benzo[b]azepine-4-formamide”, the EC50 at TLR8 is 250 to 1000 nM.

On to Cetuximab, for which the “TNFα (MDA-MB-468/hPBMC) (100 nM, pg/mL)” value in the assay with MDA-MB-468/hPBMC is listed as 345 pg/mL.

Consider Enfortumab, for which, in the assay with MDAMB175VII/hPBMC, the EC50 is more than 100 nM.

For the substance Labetuzumab, in the assay with MDAMB175VII/hPBMC, the EC50 is more than 100 nM.

By T/C is commonly meant the result in the treated group divided by that in the control group, in per cent. As for Trastuzumab, the Tumor volume in assay [1] (Vehicle 2039.7 ± 331.0) came to 1100.4 ± 311.3 mm^3. The T/C in assay [1] (vs Vehicle) was 53.9%.

Regarding Zolbetuximab, the “TNFα (NUGC-4/hPBMC) (100 nM, pg/mL)” value with NUGC-4/hPBMC is listed as 261 pg/mL.
